Data reported in ChEMBL document CHEMBL1129026, “Rapid microscale synthesis, a new method for lead optimization using robotics and solution phase chemistry: application to the synthesis and optimization of corticotropin-releasing factor1 receptor antagonists” (J Med Chem, 1996).

Molecular target: T1, Corticotropin-releasing factor receptor 1 (Homo sapiens, UniProt P34998)
T1 sequence (P34998 whole entry): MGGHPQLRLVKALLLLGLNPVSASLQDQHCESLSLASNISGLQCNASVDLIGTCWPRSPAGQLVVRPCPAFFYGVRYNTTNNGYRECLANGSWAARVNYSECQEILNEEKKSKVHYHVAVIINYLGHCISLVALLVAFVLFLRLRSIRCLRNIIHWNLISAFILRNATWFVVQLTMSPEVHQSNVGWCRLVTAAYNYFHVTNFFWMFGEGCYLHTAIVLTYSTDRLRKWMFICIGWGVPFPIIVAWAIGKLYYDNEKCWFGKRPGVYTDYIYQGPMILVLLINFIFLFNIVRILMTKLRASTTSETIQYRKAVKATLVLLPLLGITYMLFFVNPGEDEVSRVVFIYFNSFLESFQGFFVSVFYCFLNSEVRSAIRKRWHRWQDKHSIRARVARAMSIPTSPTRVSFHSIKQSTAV
Assay: Inhibition of [125I]CRF binding to human corticotropin releasing factor receptor 1

Cc1cc(C)c(Nc2nc(C)nc(N3CC=CCC3)n2)c(C)c1
Ki: 1050 nM
